Experiments:
[1] = system: human umbilical vein endothelial cells (HUVEC); experiment: In vitro HUVEC proliferation assay (b); conditions: test (b) with VEGF as the growth factor
Protocol: This assay determines the ability of a test compound to inhibit the growth factor-stimulated proliferation of human umbilical vein endothelial cells (HUVEC).
HUVEC cells were isolated in MCDB 131 (Gibco BRL) +7.5% v/v foetal calf serum (FCS) and were plated out (at passage 2 to 8), in MCDB 131+2% v/v FCS+3 μg/ml heparin+1 μg/ml hydrocortisone, at a concentration of 1000 cells/well in 96 well plates. After a minimum of 4 hours they were dosed with the appropriate growth factor (i.e. VEGF 3 ng/ml, EGF 3 ng/ml or b-FGF 0.3 ng/ml) and compound. The cultures were then incubated for 4 days at 37° C. with 7.5% carbon dioxide. On day 4 the cultures were pulsed with 1 μCi/well of tritiated-thymidine (Amersham product TRA 61) and incubated for 4 hours. The cells were harvested using a 96-well plate harvester (Tomtek) and then assayed for incorporation of tritium with a Beta plate counter. Incorporation of radioactivity into cells, expressed as cpm, was used to measure inhibition of growth factor-stimulated cell proliferation by compounds.

Protein sequences, listed by entry. Tags and fused reporters are not part of them. Residues count along the entry.
UniProt P35968, 786-1356 limits assumed: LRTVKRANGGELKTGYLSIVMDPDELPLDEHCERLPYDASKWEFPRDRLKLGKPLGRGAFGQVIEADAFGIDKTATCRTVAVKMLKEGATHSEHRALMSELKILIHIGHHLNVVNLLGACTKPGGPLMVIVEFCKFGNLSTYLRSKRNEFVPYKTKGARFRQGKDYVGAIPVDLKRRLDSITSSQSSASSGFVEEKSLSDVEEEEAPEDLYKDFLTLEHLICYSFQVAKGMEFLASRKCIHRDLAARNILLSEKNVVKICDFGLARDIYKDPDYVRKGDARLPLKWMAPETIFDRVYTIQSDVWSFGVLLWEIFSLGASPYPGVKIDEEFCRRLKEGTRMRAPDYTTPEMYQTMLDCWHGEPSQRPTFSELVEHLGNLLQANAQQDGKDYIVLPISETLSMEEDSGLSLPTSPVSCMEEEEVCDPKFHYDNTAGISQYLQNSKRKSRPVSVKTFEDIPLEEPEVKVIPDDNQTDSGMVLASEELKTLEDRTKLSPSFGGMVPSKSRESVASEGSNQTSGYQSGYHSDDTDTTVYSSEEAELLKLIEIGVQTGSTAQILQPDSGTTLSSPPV
UniProt P17948, 781-1338 limits assumed: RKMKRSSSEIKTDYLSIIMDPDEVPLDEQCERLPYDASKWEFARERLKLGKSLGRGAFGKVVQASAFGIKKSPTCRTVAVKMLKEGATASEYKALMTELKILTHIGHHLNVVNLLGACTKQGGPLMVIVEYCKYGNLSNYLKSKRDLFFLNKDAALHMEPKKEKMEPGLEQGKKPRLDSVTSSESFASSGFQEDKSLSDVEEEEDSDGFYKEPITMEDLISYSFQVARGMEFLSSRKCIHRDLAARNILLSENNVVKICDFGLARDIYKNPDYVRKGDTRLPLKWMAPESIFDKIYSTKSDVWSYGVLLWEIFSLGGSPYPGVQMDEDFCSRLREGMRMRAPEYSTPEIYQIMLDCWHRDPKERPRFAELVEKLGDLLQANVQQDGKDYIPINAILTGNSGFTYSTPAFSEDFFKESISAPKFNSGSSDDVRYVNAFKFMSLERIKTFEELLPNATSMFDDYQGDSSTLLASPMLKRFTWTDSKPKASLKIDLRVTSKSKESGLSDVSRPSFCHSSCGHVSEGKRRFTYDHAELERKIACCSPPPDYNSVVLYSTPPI

[2] = biological target: KDR receptor (Homo sapiens, UniProt P35968); experiment: In vitro receptor tyrosine kinase inhibition test (a), KDR receptor; conditions: read-out: IC50 using the KDR receptor
Text: (§1) This assay determines the ability of a test compound to inhibit tyrosine kinase activity. DNA encoding VEGF or epidermal growth factor (EGF) receptor cytoplasmic domains may be obtained by total gene synthesis (Edwards M, International Biotechnology Lab 5(3), 19-25, 1987) or by cloning. These may then be expressed in a suitable expression system to obtain polypeptide with tyrosine kinase activity. […] In the case of the VEGF receptor Flt (Genbank accession number X51602), a 1.7 kb DNA fragment encoding most of the cytoplasmic domain, commencing with methionine 783 and including the termination codon, described by Shibuya et al (Oncogene, 1990, 5: 519-524), was isolated from cDNA and cloned into a baculovirus transplacement vector (for example pAcYM1 (see The Baculovirus Expression System: A Laboratory Guide, L. A King and R. D. Possee, Chapman and Hall, 1992) or pAc360 or pBlueBacHis (available from Invitrogen Corporation)). This recombinant construct was co-transfected into insect cells (for example Spodoptera frugiperda 21(Sf21)) with viral DNA (eg Pharmingen BaculoGold) to prepare recombinant baculovirus. […]

[3] = biological target: VEGF receptor Flt (Homo sapiens, UniProt P17948); experiment: In vitro receptor tyrosine kinase inhibition test (a), Flt receptor; conditions: read-out: IC50 using the Flt receptor
Text: as §1

IC50 [2]: 15 to 50 nM
IC50 [3]: 400 to 1200 nM
SMILES: COc1cc2c(NC(=O)Nc3ccccc3Cl)ncnc2cc1OCC1CCN(C)CC1
IC50 [1]: 50 nM
